Data reported in ChEMBL document CHEMBL5375987, “Structural Fusion of Natural and Synthetic Ligand Features Boosts RXR Agonist Potency” (J Med Chem, 2023).
Activity calls are given as the source filed them.

Sequences of proteins named here, by UniProt entry; tags and fusion partners are left off. A change or cut given only in a name is not applied to a line headed by its entry.
UniProt P43354, whole entry: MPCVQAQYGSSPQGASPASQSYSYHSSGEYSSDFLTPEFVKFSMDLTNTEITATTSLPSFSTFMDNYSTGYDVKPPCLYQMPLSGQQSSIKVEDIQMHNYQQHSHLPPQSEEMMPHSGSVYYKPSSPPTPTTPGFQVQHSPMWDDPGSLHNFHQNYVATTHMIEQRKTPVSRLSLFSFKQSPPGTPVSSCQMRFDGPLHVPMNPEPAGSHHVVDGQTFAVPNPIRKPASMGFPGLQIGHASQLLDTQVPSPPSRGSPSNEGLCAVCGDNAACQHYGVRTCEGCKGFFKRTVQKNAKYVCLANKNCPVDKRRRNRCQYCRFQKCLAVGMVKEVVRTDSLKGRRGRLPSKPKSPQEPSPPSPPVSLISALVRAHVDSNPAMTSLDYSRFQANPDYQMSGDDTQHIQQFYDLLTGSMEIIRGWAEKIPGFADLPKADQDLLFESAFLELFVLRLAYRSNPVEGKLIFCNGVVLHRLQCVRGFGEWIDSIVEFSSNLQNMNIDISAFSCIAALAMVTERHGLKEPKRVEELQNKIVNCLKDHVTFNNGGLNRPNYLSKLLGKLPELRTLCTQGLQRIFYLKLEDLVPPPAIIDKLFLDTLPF
UniProt Q13133, whole entry: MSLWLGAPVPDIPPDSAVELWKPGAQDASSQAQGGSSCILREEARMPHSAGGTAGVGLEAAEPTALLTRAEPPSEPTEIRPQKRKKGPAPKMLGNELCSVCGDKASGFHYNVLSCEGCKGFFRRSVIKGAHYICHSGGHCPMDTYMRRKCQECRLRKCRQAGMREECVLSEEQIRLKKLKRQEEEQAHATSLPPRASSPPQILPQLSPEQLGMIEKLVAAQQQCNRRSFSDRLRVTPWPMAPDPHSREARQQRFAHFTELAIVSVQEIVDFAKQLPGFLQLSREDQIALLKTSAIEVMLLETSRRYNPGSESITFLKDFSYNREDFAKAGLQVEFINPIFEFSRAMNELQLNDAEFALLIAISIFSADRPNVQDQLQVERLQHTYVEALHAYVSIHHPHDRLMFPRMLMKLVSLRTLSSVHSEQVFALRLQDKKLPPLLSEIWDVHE
UniProt O00482, whole entry: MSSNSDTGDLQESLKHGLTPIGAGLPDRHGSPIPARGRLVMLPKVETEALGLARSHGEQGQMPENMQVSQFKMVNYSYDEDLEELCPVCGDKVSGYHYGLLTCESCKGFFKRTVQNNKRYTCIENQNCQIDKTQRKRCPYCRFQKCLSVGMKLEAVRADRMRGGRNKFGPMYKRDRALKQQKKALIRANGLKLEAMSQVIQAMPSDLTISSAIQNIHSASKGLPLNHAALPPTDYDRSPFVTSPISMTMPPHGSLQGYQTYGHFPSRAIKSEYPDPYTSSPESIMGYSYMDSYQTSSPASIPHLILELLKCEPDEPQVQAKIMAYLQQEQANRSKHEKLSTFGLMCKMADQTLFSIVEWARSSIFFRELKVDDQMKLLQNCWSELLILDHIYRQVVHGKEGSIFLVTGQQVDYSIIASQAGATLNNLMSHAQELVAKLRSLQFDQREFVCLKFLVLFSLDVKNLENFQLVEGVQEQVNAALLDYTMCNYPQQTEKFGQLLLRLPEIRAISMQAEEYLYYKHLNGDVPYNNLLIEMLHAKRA
UniProt P55055, whole entry: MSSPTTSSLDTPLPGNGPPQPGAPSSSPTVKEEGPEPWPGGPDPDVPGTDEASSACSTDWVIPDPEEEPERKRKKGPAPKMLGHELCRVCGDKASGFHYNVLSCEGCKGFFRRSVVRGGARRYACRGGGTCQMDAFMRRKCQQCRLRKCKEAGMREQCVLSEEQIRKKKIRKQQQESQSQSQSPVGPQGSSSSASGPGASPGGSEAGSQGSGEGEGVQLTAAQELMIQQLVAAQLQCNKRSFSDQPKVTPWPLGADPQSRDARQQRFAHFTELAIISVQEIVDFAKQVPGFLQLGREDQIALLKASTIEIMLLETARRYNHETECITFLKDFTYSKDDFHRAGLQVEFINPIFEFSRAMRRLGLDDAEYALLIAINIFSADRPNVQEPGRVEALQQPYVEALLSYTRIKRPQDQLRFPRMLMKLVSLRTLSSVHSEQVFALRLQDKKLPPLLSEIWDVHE
UniProt Q92570: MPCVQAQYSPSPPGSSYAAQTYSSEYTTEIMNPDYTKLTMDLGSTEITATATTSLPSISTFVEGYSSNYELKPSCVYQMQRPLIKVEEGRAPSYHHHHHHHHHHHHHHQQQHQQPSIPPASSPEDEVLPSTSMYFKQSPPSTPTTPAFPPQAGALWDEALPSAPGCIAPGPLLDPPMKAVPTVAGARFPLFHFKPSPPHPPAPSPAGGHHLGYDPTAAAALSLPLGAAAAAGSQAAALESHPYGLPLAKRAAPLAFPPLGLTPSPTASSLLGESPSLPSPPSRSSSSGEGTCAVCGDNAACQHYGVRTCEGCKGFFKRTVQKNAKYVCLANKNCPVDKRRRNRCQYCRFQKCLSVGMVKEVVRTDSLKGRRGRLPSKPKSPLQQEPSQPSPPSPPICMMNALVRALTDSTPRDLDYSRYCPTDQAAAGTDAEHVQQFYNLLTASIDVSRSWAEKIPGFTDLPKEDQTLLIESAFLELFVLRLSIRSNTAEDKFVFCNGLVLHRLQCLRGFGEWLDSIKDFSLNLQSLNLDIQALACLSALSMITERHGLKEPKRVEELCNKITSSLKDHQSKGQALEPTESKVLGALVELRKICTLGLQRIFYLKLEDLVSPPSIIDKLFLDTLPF

Key:
[1] = target: Nuclear receptor subfamily 4 group A member 2 (Homo sapiens) (UniProt P43354); assay: Agonist activity at NR4A2 (unknown origin) at 1 uM
[2] = target: T1, Nuclear receptor subfamily 1 group D member 2 (Homo sapiens) (UniProt Q14995); assay: Agonist activity at NR1D2 (unknown origin) at 1 uM
T1 sequence (whole entry): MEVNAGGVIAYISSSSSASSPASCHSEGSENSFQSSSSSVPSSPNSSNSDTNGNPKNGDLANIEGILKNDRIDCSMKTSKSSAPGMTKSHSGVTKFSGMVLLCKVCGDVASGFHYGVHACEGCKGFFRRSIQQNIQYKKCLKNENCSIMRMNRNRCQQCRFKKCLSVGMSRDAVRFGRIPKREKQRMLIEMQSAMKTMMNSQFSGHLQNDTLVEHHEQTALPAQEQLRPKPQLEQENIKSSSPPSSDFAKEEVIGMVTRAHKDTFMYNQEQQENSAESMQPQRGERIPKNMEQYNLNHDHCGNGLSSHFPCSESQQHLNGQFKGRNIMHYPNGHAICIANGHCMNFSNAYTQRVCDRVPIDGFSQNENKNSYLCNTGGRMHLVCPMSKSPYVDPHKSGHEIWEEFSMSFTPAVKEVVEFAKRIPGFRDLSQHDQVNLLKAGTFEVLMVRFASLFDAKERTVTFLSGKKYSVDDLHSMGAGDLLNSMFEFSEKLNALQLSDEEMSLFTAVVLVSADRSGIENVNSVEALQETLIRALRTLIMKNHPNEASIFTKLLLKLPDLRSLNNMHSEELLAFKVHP

[3] = target: Oxysterols receptor LXR-alpha (Homo sapiens) (UniProt Q13133); assay: Antagonist activity at NR1H3 (unknown origin) at 1 uM
[4] = target: T2, Hepatocyte nuclear factor 4-alpha (Homo sapiens) (UniProt P41235); assay: Inverse agonist activity at NR2A1 (unknown origin) at 1 uM
T2 sequence (whole entry): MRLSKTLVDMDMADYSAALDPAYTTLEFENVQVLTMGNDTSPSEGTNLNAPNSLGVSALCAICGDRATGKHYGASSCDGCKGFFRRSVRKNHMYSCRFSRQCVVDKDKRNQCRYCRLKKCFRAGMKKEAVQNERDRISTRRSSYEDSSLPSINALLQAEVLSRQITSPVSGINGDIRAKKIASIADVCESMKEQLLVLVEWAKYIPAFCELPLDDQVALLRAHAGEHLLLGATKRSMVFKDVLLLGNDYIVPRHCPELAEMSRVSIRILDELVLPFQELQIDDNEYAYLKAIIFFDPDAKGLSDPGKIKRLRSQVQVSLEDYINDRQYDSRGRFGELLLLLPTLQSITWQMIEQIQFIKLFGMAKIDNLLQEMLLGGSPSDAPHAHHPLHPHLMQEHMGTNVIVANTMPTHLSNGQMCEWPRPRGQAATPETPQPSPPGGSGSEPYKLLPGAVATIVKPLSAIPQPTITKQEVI

[5] = target: Nuclear receptor subfamily 5 group A member 2 (Homo sapiens) (UniProt O00482); assay: Antagonist activity at NR5A2 (unknown origin) at 1 uM
[6] = target: Oxysterols receptor LXR-beta (Homo sapiens) (UniProt P55055); assay: Inverse agonist activity at NR1H2 (unknown origin) at 1 uM
[7] = target: T3, Nuclear receptor subfamily 1 group D member 1 (Homo sapiens) (UniProt P20393); assay: Inverse agonist activity at NR1D1 (unknown origin) at 1 uM
T3 sequence (whole entry): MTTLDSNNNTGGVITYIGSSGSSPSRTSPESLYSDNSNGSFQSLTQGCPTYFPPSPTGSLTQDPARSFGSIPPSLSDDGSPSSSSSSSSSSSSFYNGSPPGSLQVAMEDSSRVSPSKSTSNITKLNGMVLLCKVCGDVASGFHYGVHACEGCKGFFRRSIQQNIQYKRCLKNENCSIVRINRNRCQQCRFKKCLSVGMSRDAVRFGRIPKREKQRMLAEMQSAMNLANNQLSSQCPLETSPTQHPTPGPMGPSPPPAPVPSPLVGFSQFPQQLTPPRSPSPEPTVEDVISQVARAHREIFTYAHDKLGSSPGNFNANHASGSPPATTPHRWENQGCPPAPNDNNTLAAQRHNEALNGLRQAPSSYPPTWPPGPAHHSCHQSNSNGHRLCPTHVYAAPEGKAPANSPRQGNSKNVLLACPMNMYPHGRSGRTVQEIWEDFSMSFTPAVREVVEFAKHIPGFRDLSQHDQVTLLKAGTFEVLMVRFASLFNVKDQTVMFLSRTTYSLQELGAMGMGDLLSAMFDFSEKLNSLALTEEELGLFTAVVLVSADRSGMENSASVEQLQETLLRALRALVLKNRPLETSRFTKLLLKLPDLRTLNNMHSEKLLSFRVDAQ

[8] = target: Nuclear receptor subfamily 4 group A member 3 (Homo sapiens) (UniProt Q92570); assay: Antagonist activity at NR4A3 (unknown origin) at 1 uM
[9] = target: T4, Vitamin D3 receptor (Homo sapiens) (UniProt P11473); assay: Agonist activity at NR1I1 (unknown origin) at 1 uM
T4 sequence (whole entry): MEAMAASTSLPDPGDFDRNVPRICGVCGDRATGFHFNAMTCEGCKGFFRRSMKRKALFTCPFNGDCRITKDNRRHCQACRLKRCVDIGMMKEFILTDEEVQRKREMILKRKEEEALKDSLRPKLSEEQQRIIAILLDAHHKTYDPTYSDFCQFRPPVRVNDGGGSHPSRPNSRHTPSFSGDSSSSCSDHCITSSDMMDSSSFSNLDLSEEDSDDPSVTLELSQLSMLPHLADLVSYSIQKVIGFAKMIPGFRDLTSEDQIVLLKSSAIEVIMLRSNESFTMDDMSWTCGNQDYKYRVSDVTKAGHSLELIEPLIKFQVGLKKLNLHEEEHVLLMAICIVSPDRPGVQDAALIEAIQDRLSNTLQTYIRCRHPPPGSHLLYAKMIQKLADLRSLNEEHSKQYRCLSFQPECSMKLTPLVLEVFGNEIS

[10] = target: T5, Bile acid receptor (Homo sapiens) (UniProt Q96RI1); assay: Antagonist activity at NR1H4 (unknown origin) at 1 uM
T5 sequence (whole entry): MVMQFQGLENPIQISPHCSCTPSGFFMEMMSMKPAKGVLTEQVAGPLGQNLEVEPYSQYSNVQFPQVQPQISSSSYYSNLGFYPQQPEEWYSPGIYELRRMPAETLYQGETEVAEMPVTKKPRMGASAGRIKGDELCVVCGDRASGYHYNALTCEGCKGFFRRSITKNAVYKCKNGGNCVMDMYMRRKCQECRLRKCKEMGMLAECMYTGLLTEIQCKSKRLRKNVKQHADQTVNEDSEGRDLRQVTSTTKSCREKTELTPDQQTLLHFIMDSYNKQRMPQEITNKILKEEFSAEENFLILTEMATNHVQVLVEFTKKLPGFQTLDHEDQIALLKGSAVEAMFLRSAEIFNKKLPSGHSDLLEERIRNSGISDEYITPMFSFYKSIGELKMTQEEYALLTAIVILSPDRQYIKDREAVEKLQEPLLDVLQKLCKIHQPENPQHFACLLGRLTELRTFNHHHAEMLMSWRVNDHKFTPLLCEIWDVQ

Measured: Activity

O=C(O)[C@@H]1C[C@H]1c1nc(-c2ccccc2)c(-c2cc(C(F)(F)F)cc(C(F)(F)F)c2)o1 (racemic)
inactive: all assays above
